# Target: T1, ChdC (SaChdC; coproheme decarboxylase) (Staphylococcus aureus, UniProt A6QEP0)
# T1 sequence (A6QEP0 1-250): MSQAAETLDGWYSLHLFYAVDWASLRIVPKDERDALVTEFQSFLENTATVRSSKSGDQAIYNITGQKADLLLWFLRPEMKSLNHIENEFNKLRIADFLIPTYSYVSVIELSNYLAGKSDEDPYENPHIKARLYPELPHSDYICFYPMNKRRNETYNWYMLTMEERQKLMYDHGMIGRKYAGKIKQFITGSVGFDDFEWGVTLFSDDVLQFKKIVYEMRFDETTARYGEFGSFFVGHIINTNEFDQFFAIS
# Settings: 50 mM Tris pH 8, 150 mM NaCl, 25 °C; Langmuir-Hill fit
substance,measurement,value
coproheme,Kd,500 ± 30 nM

# — paper PMC7160669 (Biochemistry, 2019)
